We go through two molecules from ChEMBL document CHEMBL2401703, “Synthesis of pyrazolo[1,5-a][1,3,5]triazine derivatives as inhibitors of thymidine phosphorylase” (Eur J Med Chem, 2013).

Amino acid sequences for entries named in this document (tags omitted). A change or cut given only in a name is not applied to a line headed by its entry.
UniProt P07650: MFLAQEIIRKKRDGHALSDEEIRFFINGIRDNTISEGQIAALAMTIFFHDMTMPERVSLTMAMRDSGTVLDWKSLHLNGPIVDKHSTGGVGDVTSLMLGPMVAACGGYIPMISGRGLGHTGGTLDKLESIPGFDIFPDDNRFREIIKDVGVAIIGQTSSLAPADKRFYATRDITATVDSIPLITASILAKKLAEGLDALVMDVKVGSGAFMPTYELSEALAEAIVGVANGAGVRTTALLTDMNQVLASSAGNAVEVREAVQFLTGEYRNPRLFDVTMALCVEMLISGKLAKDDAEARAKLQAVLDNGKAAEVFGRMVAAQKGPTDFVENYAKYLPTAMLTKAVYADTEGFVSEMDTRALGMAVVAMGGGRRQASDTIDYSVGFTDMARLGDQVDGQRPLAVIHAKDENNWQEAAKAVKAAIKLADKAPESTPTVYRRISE

The target of one experiment is Thymidine phosphorylase (Escherichia coli K-12, UniProt P07650). Nature of the experiment: Inhibition of recombinant Escherichia coli thymidine phosphorylase using thymidine as substrate by UV-spectrophotometric analysis. An outline of the steps:
(§1)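 TP (1.5 U/ml stock in pH 7.0 phosphate buffer) mixed with compound in DMSO (DMSO alone as blank) and thymidine (5 mM stock, 200 µl into 1 ml total) in pH 7.4 phosphate buffer. Absorbance decrease at 290 nm read at 4, 8, 12, 16 and 20 min. Velocity taken from the slope of a linear fit. Percent inhibition calculated versus the blank.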

The target in experiment [1] is Thymidine phosphorylase (Escherichia coli K-12) (UniProt P07650). The experiment in a line: Inhibition of recombinant Escherichia coli thymidine phosphorylase using thymidine as substrate at 50 uM by UV-spectrophotometric analysis relative to control. An outline of the steps:
as §1

One may read the IC50 as the point on the concentration scale where inhibition reaches its midpoint. For `O=c1[nH]c(=O)c2cc[nH]c2[nH]1` [7-DEAZAXANTHINE], on Thymidine phosphorylase, the IC50 turned out to be 32.2 µM.

A word on the inhibition: it is the share of the control response that was lost under treatment. `O=c1[nH]c(=S)[nH]c2cc(-c3ccccc3)nn12`: the inhibition in experiment [1] was found to be 50%.
